Reference: the RepoRT retention time repository (doi:10.1021/acs.analchem.2c02893)

How the values were obtained:
Conditions in all cases: stereoisomer not certain
[1] = RP, Thermo Scientific Acclaim RSLC 120 C18, 100 × 2.1 mm, 2.2 µm, 30 °C, 0.2 mL/min, estimated dead time 1.1 min; A: 90% water + 10% methanol + 0.01% formic acid + 5 mM ammonium formate, pH 3.61; B: methanol + 0.01% formic acid + 5 mM ammonium formate, pH 3.61; gradient (min/%B) 0/1 1/1 2/39 13/99.9 15/99.9 15.1/1 20.1/1
[2] = RP, Waters ACQUITY UPLC BEH C18, 100 × 2.1 mm, 1.7 µm, 30 °C, 0.35 mL/min, estimated dead time 0.63 min; A: water + 0.01% formic acid + 5 mM ammonium formate, pH 3.71; B: acetonitrile + 0.01% formic acid, pH 3.71; gradient (min/%B) 0/10 3/10 22/100 30/100 30.1/10 40/10
[3] = RP, Thermo Scientific Acclaim RSLC 120 C18, 100 × 2.1 mm, 2.2 µm, 30 °C, 0.2 mL/min, estimated dead time 1.1 min; A: water + 0.1% formic acid, pH 2.6; B: methanol + 0.1% formic acid, pH 2.6; gradient (min/%B) 0/10 4/50 17/95 25/95 25.1/10 30/10
[4] = RP, Waters ACQUITY UPLC BEH C18, 100 × 2.1 mm, 1.7 µm, 35 °C, 0.35 mL/min, estimated dead time 0.63 min; A: water + 0.01% formic acid + 5 mM ammonium formate, pH 3.71; B: acetonitrile + 0.01% formic acid, pH 3.71; gradient (min/%B) 0/5 0.5/5 16/95 16.1/99 19/99 19.1/5 21/5

SMILES | LC retention time [1] | LC retention time [2] | LC retention time [3] | LC retention time [4]
Clc1ccccc1N1CCNCC1 [Piperazine-o-Chlorophenyl] | 5.08 min |  |  | 
OCCOCCOCCOCCO [Tetraethylene glycol] |  | 1.16 min | 3.14 min | 1.56 min
CCOP(=S)(OCC)Oc1ncn(-c2ccccc2)n1 [Triazophos] | 9.9 min |  |  | 
